Values of other authors in paper PMC12169663, “Deciphering the Tumor Uptake of Heterobivalent (SST2/Albumin) [^64Cu]Cu-NODAGA-cLAB-TATEs” (Journal of Medicinal Chemistry, 2025).

By UniProt entry, the sequences of proteins in these tests, tags left out. Residues count along the entry.
UniProt P02768, 25-609 limits assumed: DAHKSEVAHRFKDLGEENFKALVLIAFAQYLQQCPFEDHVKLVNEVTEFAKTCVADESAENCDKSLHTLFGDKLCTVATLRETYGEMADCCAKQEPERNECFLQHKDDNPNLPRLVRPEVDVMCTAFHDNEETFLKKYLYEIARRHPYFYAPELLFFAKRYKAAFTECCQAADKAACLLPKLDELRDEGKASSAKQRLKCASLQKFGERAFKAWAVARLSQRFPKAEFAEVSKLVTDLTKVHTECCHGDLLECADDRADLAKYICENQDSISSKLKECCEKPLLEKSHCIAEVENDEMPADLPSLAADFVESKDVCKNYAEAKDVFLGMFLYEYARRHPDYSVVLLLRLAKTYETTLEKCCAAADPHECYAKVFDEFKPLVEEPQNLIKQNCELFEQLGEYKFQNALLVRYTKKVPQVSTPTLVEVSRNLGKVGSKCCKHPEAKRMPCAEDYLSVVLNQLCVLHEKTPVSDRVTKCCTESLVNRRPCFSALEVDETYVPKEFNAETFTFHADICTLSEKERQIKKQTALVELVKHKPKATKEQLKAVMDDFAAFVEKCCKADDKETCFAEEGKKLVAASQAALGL

Biological target: HSA (Homo sapiens, UniProt P02768)
Conditions: read-out: Kd value of the albumin binder; isolated albumin binder; ref 1 (SI: Brandt et al., J. Med. Chem. 2022); cited from earlier work

Cc1ccc(CCCC(=O)NCCCC[C@H](NC(=O)c2ccc(N=[N+]=[N-])cc2)C(=O)O)cc1
pKd: 5.52

pKd: −log10 of the molar value.
